Values quoted from earlier work, collected in US10022421B2, “Treatment of primary and metastatic carcinoma” (Spectrum Pharmaceuticals Inc., priority 2012, dated 2018).

Sequences of proteins named here, by UniProt entry; tags and fusion partners are left off. Residues count along the entry.
UniProt P24530, 27-442: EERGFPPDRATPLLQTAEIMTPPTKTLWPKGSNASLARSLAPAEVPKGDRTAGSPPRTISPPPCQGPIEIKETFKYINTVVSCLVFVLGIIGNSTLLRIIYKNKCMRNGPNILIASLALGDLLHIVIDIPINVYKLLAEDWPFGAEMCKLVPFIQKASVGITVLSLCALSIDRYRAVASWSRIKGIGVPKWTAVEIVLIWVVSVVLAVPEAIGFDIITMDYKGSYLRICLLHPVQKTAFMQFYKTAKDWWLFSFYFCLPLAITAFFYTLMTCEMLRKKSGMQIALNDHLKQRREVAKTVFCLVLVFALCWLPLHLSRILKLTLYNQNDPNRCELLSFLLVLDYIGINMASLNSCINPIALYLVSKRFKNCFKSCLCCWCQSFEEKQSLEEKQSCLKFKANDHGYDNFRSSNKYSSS

Molecular target: ETB receptors (Homo sapiens, UniProt P24530)
Details: ETB vs ETA; cited from earlier work

N-Succunyl-[Glu^9, Ala^11,15] Endothelin-1 (8-21) (DEEAVYFAHLDIIW; N-terminal succinyl; ETB receptor agonist IRL-1620; MOD_RES (1)..(1) Succinylated)
selectivity of binding to ETB receptors over endothelin A receptors: 120,000 times
